The chains behind the UniProt entries cited, without tags or fusion partners.
UniProt P21452, whole entry: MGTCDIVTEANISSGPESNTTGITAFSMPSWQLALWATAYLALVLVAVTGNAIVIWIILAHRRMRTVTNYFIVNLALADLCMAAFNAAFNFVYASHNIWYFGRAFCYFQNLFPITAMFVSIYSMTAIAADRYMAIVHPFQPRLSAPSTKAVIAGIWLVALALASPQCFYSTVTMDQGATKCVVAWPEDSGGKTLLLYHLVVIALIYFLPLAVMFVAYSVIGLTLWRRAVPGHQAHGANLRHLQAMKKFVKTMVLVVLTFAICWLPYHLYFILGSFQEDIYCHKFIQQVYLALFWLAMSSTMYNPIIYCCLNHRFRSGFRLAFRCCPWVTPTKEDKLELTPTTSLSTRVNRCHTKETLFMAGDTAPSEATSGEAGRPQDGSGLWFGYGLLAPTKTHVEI

In publication PMC9916806, “Tachykinin Receptor-Selectivity of the Potential Glioblastoma-Targeted Therapy, DOTA-[Thi^8,Met(O2)^11]-Substance P” (International Journal of Molecular Sciences, 2023):

Biological target: T1, NK2R (Homo sapiens, UniProt P21452)
T1 construct: host or cells: HEK293-T
Assay: IP accumulation assay, NK2R activation (HEK293-T cells)
Assay type: cell-based
Details: 1 µM SP; Supplemental Figure S3, % of cognate native ligand (NKA) response; single experiment (n=1); also ref [11]
Excerpt: pcDNA mammalian expression vectors encoding human NK3R (GenBank accession number: AY462098), NK2R (GenBank accession number: AY322545), NK1R (GenBank accession number: AY462099) and MRGPRX2 (GenBank accession number: NM_054030) were obtained from the Bloomsburg University cDNA Resource Center (www.cdna.org [accessed on 18 October 2018]). The NK1R, NK2R and NK3R vectors included an N-terminal 3xHA epitope tag. The empty vector, pcDNA3.1, was obtained from Thermo Fisher Scientific (Waltham, MA, USA). […] Talnetant was kindly supplied by Dr Mike Trower (NeRRe Therapeutics, Stevenage, UK).
Modified human embryonic kidney cells (HEK293-T; American Tissue and Cell Culture Collection), which provide a ‘blank’ background (with little/no endogenous tachykinin receptor nor MRGPRX2 expression) and stably express large T-antigen for optimal expression of exogenous proteins, were utilised. […]
The tachykinin receptors elicit intracellular signalling responses primarily through coupling to, and the activation of, Gαq/11 G proteins. […] These can be isolated using ion exchange chromatography and their radioactivity measured, with the amount of radiolabelled IP generated (i.e., the level of radioactivity measured) being proportional to the signalling activity of the receptor [48]. […]

NK2R response to SP: able to elicit a response
Structure (SMILES): CSCC[C@H](NC(=O)[C@H](CC(C)C)NC(=O)CNC(=O)[C@H](Cc1ccccc1)NC(=O)[C@H](Cc1ccccc1)NC(=O)[C@H](CCC(N)=O)NC(=O)[C@H](CCC(N)=O)NC(=O)[C@@H]1CCCN1C(=O)[C@H](CCCCN)NC(=O)[C@@H]1CCCN1C(=O)[C@@H](N)CCCNC(=N)N)C(N)=O [SP, Substance P]
